Results taken from patent US5610319A, “Compound useful as antiproliferative agents and GARFT inhibitors” (Agouron Pharmaceuticals, Inc., priority 1995, dated 1997).

Test system: C3H/BA mammary adenocarcinoma
Assay type: in vivo, C3H/He female mice
Conditions: 5 mg/kg, intraperitoneal, once daily for nine days
Description: On day zero, 2 mm^2 trocar fragments of C3H/BA mammary adenocarcinoma were implanted subcutaneously in the axillary region into groups of six C3H/He female mice. Starting on day 1, the test compound was administered intraperitoneally in 40% Encapsin given once daily for nine days. Control animals received identical treatment without test compound. The percentage of inhibition was calculated by comparing the mass of the control tumors (receiving diluent only) on day 14 to those of animals receiving test compound.

Nc1nc2c(c(=O)[nH]1)SC(CCc1ccc(C(=O)N[C@@H](CCC(=O)O)C(=O)O)s1)CN2 (stereo partly drawn) [Compound 21, 4-[2-(2-Amino-4-oxo-4,6,7,8-tetrahydro-3H-pyrimido[5,4-6][1,4]thiazin-6-yl)-ethyl]-2,5-thienoylamino-L-glutamic acid]
Survivors: 5/6
